Measurements: US9278124B2, “Hypoxia and hyaluronan and markers thereof for diagnosis and monitoring of diseases and conditions and related methods” (dated 2016)

What was measured:
[1] = in particular at pH 3 to 8; cited from earlier work
[2] = tested on: BxPC-3 peritibial tumors; experiment: BrdU proliferation index, PEGPH20 and gemcitabine study in BxPC-3 peritibial tumors; conditions: BrdU positive nuclei / total nuclei x 100; PEGPH20 4.5 mg/kg at 0 and 66 h; gemcitabine 240 mg/kg ip at 24 h; 72 h; control 12.5 ± 4.28
[3] = tested on: BxPC-3 peritibial tumors; experiment: Tumor hypoxia (pimonidazole), PEGPH20 and gemcitabine study in BxPC-3 peritibial tumors; conditions: PEGPH20 4.5 mg/kg at 0 and 66 h; gemcitabine 240 mg/kg ip at 24 h; 72 h; control 5.71±3.66%
[4] = tested on: BxPC-3 peritibial tumors; experiment: Vascular perfusion (DiI), PEGPH20 and gemcitabine study in BxPC-3 peritibial tumors; conditions: PEGPH20 4.5 mg/kg at 0 and 66 h; gemcitabine 240 mg/kg ip 24 h after first PEGPH20; 72 h; control 2.89±1.92%
[5] = tested on: hypoxic cells; conditions: cited from earlier work
[6] = tested on: hypoxic cells; conditions: cited from earlier work; remark: listed apart in the source
[7] = tested on: cancer cell lines; conditions: cited from earlier work
[8] = tested on: hypoxic cells; conditions: cited from earlier work; remark: listed apart in the source
[9] = tested on: hypoxic and normoxic cells in culture; conditions: cited from earlier work

With CC(OC(=O)N(N(CCCl)S(C)(=O)=O)S(C)(=O)=O)c1ccc([N+](=O)[O-])cc1 (stereo not drawn) as the compound, how does the “solubility in aqueous solution” value [1] read?
The value was “rather insoluble in aqueous solution”.

With Nc1ccn([C@@H]2O[C@H](CO)[C@@H](O)C2(F)F)c(=O)n1 as the compound, how does the “Anti-Tumor Activity (Proliferation Index), Mean ± SD” value [2] read?
The value was 8.37 ± 3.02.

What about the “mean percent hypoxic area in whole tumor section” value [3] of the same compound?
Its value is 5.32±5.31%.

What about the “mean area of patent, perfusable tumor blood vessels” value [4] of the same compound?
Its value is 2.72±1.83%.

Which hypoxic cytotoxicity ratio [5] does the source give for CO[C@@]12C(COC(N)=O)C3=C(C(=O)C(C)=C(N)C3=O)N1C[C@@H]1N[C@@H]12 (stereo partly drawn) here?
The hypoxic cytotoxicity ratio was 1 to 5.

For “[Co(III)(3-methyl-2,4-pentanedionato)2(N,N-bis(2-chloroethyeethylenediamine)]^+”, which hypoxia specific cytotoxicity [6] is on record?
The hypoxia specific cytotoxicity was 20-25.

With Cn1c(COP(=O)(NCCBr)NCCBr)cnc1[N+](=O)[O-] as the compound, how does the “improved potency compared to TH-281” value [7] read?
The value was 10 fold.

Which “increased hypoxic-specific toxicity compared to CB1954” value [8] does the source give for NC(=O)c1cc(N(CCCl)CCCl)c([N+](=O)[O-])cc1[N+](=O)[O-] here?
The value was “about 3.6 fold”.

For Nc1n[n+]([O-])c2ccccc2[n+]1[O-], which “fold more toxic to hypoxic than to normoxic cells” value [9] is on record?
The value was 50-200 fold.
